Chains of the proteins cited; added tags and fusions are not shown. Residues count along the entry.
UniProt Q8WXD0, whole entry: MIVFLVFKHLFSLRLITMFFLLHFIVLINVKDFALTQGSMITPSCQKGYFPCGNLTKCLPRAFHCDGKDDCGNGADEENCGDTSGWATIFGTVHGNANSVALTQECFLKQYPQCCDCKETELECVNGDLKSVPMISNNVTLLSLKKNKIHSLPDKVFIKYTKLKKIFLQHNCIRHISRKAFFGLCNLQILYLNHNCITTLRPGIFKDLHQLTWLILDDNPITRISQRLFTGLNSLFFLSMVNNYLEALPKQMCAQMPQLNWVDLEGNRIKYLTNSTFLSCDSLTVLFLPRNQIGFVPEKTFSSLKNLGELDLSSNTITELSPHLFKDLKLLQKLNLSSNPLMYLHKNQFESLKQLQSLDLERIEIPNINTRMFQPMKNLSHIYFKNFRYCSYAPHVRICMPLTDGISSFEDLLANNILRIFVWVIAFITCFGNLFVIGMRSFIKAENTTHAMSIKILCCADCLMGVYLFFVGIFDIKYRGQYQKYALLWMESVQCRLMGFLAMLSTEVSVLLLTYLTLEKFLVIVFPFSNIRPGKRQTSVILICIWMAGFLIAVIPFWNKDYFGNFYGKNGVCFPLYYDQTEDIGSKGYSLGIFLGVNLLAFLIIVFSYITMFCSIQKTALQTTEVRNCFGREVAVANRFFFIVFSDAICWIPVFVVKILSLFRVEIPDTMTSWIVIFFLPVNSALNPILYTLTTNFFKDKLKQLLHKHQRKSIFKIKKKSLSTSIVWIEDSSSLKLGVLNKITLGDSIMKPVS
UniProt Q9HBX9, whole entry: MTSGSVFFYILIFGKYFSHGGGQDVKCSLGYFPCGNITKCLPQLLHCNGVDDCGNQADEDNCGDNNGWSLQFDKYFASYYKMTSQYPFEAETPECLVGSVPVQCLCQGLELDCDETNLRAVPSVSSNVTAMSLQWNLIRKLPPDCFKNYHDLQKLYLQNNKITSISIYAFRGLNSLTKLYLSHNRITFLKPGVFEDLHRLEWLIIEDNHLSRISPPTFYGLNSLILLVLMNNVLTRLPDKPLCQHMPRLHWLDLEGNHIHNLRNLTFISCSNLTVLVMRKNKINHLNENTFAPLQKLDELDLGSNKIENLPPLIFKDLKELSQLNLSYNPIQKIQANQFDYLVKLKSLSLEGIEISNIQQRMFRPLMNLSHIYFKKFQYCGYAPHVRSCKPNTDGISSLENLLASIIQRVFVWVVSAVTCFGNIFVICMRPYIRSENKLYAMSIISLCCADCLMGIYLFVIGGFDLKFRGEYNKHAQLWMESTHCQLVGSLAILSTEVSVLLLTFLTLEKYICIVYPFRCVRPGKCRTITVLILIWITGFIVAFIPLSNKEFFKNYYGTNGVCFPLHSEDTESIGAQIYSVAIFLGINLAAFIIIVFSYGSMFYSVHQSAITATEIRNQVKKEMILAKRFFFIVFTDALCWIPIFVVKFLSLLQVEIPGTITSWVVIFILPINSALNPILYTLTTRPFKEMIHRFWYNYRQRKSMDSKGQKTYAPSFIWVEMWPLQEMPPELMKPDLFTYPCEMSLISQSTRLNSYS
UniProt F7EMH8, 20-737 limits assumed: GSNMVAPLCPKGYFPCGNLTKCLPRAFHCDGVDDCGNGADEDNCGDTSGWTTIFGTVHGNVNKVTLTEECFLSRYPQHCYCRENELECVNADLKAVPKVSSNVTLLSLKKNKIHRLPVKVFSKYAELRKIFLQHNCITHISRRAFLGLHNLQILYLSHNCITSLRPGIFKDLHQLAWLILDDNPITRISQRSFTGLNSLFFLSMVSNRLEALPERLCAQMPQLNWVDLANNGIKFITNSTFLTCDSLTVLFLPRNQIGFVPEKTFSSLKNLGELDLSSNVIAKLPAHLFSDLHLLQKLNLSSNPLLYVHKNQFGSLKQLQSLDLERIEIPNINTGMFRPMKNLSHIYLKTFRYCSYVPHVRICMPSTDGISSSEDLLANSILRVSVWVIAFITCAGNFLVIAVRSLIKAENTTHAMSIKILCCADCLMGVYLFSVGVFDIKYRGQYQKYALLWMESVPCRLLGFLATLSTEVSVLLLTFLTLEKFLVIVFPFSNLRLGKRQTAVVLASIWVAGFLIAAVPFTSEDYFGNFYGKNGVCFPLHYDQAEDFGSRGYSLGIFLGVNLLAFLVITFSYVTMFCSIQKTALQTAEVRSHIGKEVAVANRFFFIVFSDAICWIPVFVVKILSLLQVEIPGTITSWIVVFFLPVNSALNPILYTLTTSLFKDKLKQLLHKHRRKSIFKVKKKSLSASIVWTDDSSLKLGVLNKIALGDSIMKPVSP

According to article PMC11162469, “Discovery of RXFP2 genetic association in resistant hypertensive men and RXFP2 antagonists for the treatment of resistant hypertension” (Scientific Reports, 2024):

What was measured:
human RXFP2 = human RXFP2 (Homo sapiens, UniProt Q8WXD0); test: INSL3-stimulated cAMP assay in HEK293 with BacMam expression of human RXFP2; conditions: for Human RXFP2 % Max response: INSL3-stimulated cAMP; for Human RXFP2 % Max response / IC50: HEK cells with Bacmam hRXFP2, mean; for IC50: read-out: Human RXFP2 IC50, INSL3 EC80-stimulated cAMP
Method: A high throughput screen (HTS) assay was developed using HEK293 cells transduced with RXFP2 via baculovirus-mediated gene transfer (BacMam)[40]. […] The primary assay was performed using homogenous time resolved fluorescence (HTRF) to detect compound inhibition of INSL3 EC80-induced cAMP in HEK293 expressing human RXFP2 (hRXFP2; INSL3 EC50 = 0.048 nM). The HTS campaign identified 104 hits across 8 clusters showing blockade of hRXFP2.
(§1) The nucleotide sequences used in Bacmam transfections encoded RXFP protein as described in UniProt (Q9HBX9. RXFP1_human; Q8WXD0. RXFP2_human; Q5ECL0. RXFP2_rat). HEK293- MSRII cells were maintained in DMEM‐F12, supplemented with 10% fetal bovine serum (FBS) and L-glutamine at 37 °C/5% CO2. HEK293 stably expressing Gα16 were maintained in DMEM‐F12, supplemented with 10% FBS, L-glutamine and selection antibiotics at 37 °C/5% CO2. Transient receptor expression was achieved using modified baculoviruses (BacMam), generated according to manufacturer’s instructions using the Bac-to-Bac system (Invitrogen, UK) encoding hRXFP1, hRXFP2 or rRXFP2. Cells were transduced with RXFP-BacMam at an optimized multiplicity of infection (MOI) of 5.
(§2) cAMP generation was measured using the Lance Ultra cAMP kit as per manufacturer’s instructions (Perkin Elmer) in HEK293 cells transduced in tissue culture flasks with RXFP BacMam, incubated at 37 °C/5% CO2 for 18 h before assay. Primary single shot HTS and specificity assays were performed in 1536-well format. HEK293 wild type (wt) or RXFP2-transduced HEK293 cells were detached, washed in PBS and resuspended in assay buffer (HBSS, 5 mM Hepes, 0.1% BSA, 0.5 mM IBMX, pH 7.4). The cell solution was plated at a density of 500 cells/well in 3 µL into white, 1536-well plates pre-stamped with 50 nL of test compound and incubated for 30 min. Agonist stimulation was induced with the addition of a further 2 µL of assay buffer supplemented with a final EC80 concentration of ligand (20 nM Isoprenaline- no RXFP receptor or 4.5 pM INSL3- RXFP receptor). After a 30 min incubation, 4 µL of Lance detection reagent was added and the FRET signal read 1 h later using a TR-FRET-capable plate reader, with excitation at 340 nm and emission at 615 nm and 665 nm. Results were expressed as acceptor fluorescence (signal at 665 nm/signal at 615 nm) normalized to 100% inhibition and 0% inhibition controls (+/− agonist stimulation respectively). Further confirmation, selectivity and ortholog cAMP assays were performed post-HTS in 384-well format using a modified protocol. Here, 10,000 cells/well were plated in 5 µL into white, 384-well plates pre-stamped with 100 nL of test compound and incubated for 30 min. Agonist stimulation was induced with the addition of a further 5 µL of assay buffer supplemented with a final EC80 concentration of ligand (120 nM INSL3- RXFP2, 0.89 nM INSL3- rRXFP2, 1.6 nM H2 Relaxin- RXFP1). After a 30 min incubation, 10 µL of Lance detection reagent was added and results collected as above.

Solubility by CAD = test: Solubility by CAD
Description: Table 1 Discovery of small molecule RXFP2 antagonists. | column: CAD SOL (μg/mL)

rat RXFP2 [1] = molecular target: rat RXFP2 (Rattus norvegicus, UniProt Q5ECL0); test: INSL3-stimulated cAMP assay in HEK293 with BacMam expression of rat RXFP2; conditions: HEK cells with Bacmam rRXFP2, mean; for Rat RXFP2 % Max Response: INSL3-stimulated cAMP; for IC50: read-out: Rat RXFP2 IC50, INSL3 EC80-stimulated cAMP
Method: (§3) Active compounds (RXFP2 HTRF IC50 < 100 µM, RXFP2 FLIPR IC50 < 100 µM) were profiled to determine selectivity and rat cross-reactivity (Fig. 2). The RXFP1 assay detected compound inhibition of relaxin EC80-induced cAMP in HEK293 transiently expressing human RXFP1 (hRXFP1). The orthologue RXFP2 assay detected compound inhibition of INSL3 EC80-induced cAMP in HEK293 transiently expressing rat RXFP2 (rRXFP2; INSL3 EC50 = 13 nM). […] Only 7 of 104 compounds had rRXFP2 IC50 < 100 µM, indicating poorly conserved receptor binding sites across species. RXFP2 blockers were organized into two potential series, based on structural similarity. A hit expansion campaign was conducted to confirm structure activity relationships, improve potency, and improve the drug-like properties (LE ~ 0.3, PFI < 6, MWt < 350, Solubility by CLND/CAD > 100 μg/mL). BRL-37274 and GSK618069 were identified as selective RXFP2 antagonists. […] BRL-37274 had IC50 = 15.8 µM with 91% maximum effect, and twofold less potency against rRXFP2. Ultimately, poor chemical properties and low ligand efficiency limited further compound optimization (Table 1, Supplementary Figs. S6, S7).
as §1, §2

human RXFP1 = human RXFP1 (Homo sapiens, UniProt Q9HBX9); test: Relaxin-stimulated cAMP assay in HEK293 with BacMam expression of human RXFP1; conditions: relaxin EC80-induced cAMP, HEK cells with Bacmam hRXFP1
Method: Active compounds (RXFP2 HTRF IC50 < 100 µM, RXFP2 FLIPR IC50 < 100 µM) were profiled to determine selectivity and rat cross-reactivity (Fig. 2). The RXFP1 assay detected compound inhibition of relaxin EC80-induced cAMP in HEK293 transiently expressing human RXFP1 (hRXFP1). The orthologue RXFP2 assay detected compound inhibition of INSL3 EC80-induced cAMP in HEK293 transiently expressing rat RXFP2 (rRXFP2; INSL3 EC50 = 13 nM). […] Only 7 of 104 compounds had rRXFP2 IC50 < 100 µM, indicating poorly conserved receptor binding sites across species. RXFP2 blockers were organized into two potential series, based on structural similarity. A hit expansion campaign was conducted to confirm structure activity relationships, improve potency, and improve the drug-like properties (LE ~ 0.3, PFI < 6, MWt < 350, Solubility by CLND/CAD > 100 μg/mL). BRL-37274 and GSK618069 were identified as selective RXFP2 antagonists. […]
cAMP generation was measured using the Lance Ultra cAMP kit as per manufacturer’s instructions (Perkin Elmer) in HEK293 cells transduced in tissue culture flasks with RXFP BacMam, incubated at 37 °C/5% CO2 for 18 h before assay. […] After a 30 min incubation, 4 µL of Lance detection reagent was added and the FRET signal read 1 h later using a TR-FRET-capable plate reader, with excitation at 340 nm and emission at 615 nm and 665 nm. […]

rat RXFP2 [2] = molecular target: rat RXFP2 (Rattus norvegicus, UniProt F7EMH8); test: INSL3-stimulated CYP11B2 mRNA expression in H295R stably expressing rat RXFP2; conditions: read-out: IC50 on INSL3-stimulated CYP11B2 mRNA expression; H295R-rRXFP2, 3.5 nM rat INSL3 (EC80), 48 h, qPCR; tested form: formate
Method: RXFP2 antagonists were added to H295R-rRXFP2 before addition of INSL3 EC80 (3.5 nM) for 48 h, whereupon the cells and supernatants were collected. CYP11B1 and CYP11B2 mRNA were determined by qPCR and the RXFP2 blocker potencies were calculated (Fig. 5a). Fifteen antibodies have IC50s < 50 nM, and three of the top antibodies (1F2, 4G6, and 2D4) were selected for evaluation in steroid hormone secretion assays by ELISA.
Cells were prepared as described above and used for assays. 55,000 cells were detached and seeded into each well of a 96-well plate. Replica plates at 3.33× final concentration of the test compound were made and cells were treated with test compounds or mAbs for 1 h before human INSL3 at approximately EC80 (270 pM) was added to the wells. The final test compound or mAb concentrations ranged from 10 mM to 15 nM (in 1% DMSO or PBS). […]
Total RNA was prepared using the MagMax MirVana Total RNA isolation kit (Applied Biosystems, A27828), and cDNA synthesis was performed per manufacturer’s protocol. […] Probes for CYP11B1 (Hs01596404_m1), CYP11B2 (Hs01597732_m1), and GAPDH (Hs02786624_g1) were analyzed. RT-qPCR data was analyzed using the ΔΔCt method. ΔCt was calculated by subtracting internal GAPDH control Ct from the gene Ct. ΔΔCt was calculated by subtracting the average ΔCt of all negative control samples. Gene expression fold change (FC) was calculated as FC = 2^(−ΔΔCt). […]

rat RXFP2 [3] = test: INSL3-stimulated cAMP assay in HEK293 with BacMam expression of rat RXFP2; conditions: HEK cAMP assays
Method: as §3, §1, §2

CNC(=O)c1ccc(-c2nn(C)c(=O)cc2NCc2cn(C)cn2)cc1
Human RXFP2 % Max response (human RXFP2): 1.5%
IC50 (human RXFP2): > 100 µM
CAD SOL (solubility) (Solubility by CAD): > 235 µg/mL
Rat RXFP2 % Max Response (rat RXFP2 [1]): 2%
IC50 (rat RXFP2 [1]): > 100 µM

O=C(NC1CCCC1)N1CCN(c2cccc3c2nc(-c2ccncc2)n3C2CCNCC2)CC1
Human RXFP1 IC50 (human RXFP1; tested form: formate): < 4 µM
IC50 (rat RXFP2 [2]): 2.8 µM
Human RXFP2 % Max response (human RXFP2; tested form: formate): 100%
IC50 (human RXFP2; tested form: formate): 0.4 µM
LE (ligand efficiency) (human RXFP2; tested form: formate): 0.3
CAD SOL (solubility) (Solubility by CAD; tested form: formate): > 182 µg/mL
reduced potency against rRXFP2 versus hRXFP2 (rat RXFP2 [3]; tested form: formate): 200 fold
Rat RXFP2 % Max Response (rat RXFP2 [1]; tested form: formate): 56%
IC50 (rat RXFP2 [1]; tested form: formate): 79.4 µM

CC(C)[C@@H](NS(=O)(=O)c1ccc(C(=O)O)n1C)C(=O)N(C)Cc1ccc(-c2ccc3[nH]ccc3c2)cc1
Human RXFP2 % Max response (human RXFP2): 5%
IC50 (human RXFP2): > 100 µM
CAD SOL (solubility) (Solubility by CAD): > 209 µg/mL
Rat RXFP2 % Max Response (rat RXFP2 [1]): 2%
IC50 (rat RXFP2 [1]): > 100 µM

Clc1cc(CSCc2ccccc2)cc(Cl)c1NC1=NCCN1
Human RXFP1 IC50 (human RXFP1): < 4 µM
LE (ligand efficiency) (human RXFP2): 0.3
Human RXFP2 % Max response (human RXFP2): 91%
IC50 (human RXFP2): 15.8 µM
CAD SOL (solubility) (Solubility by CAD): 116 µg/mL
reduced potency against rRXFP2 versus hRXFP2 (rat RXFP2 [3]): twofold
Rat RXFP2 % Max Response (rat RXFP2 [1]): 87%
IC50 (rat RXFP2 [1]): 31.6 µM

Like-named read-outs stand apart in the source and are kept apart here.
